A short description of data set [1]: RP-LC chromatographic lipophilicity (logkw). Type of data set: physicochemical. Particulars: chromatographic lipophilicity from gradient RP-LC, Luna RP-C18, water/acetonitrile with 0.1% formic acid, 30 °C.
For data set [2], the target named is T1, CA IX (Homo sapiens, UniProt Q16790). Description: Stopped-flow CA-catalysed CO2 hydration inhibition assay. Type of data set: biochemical. The settings on record: for logKi(CA IX): logarithm of Ki (Ki in nM), mean of three determinations; for pKi (exp.): sulphonamides with IDs C…, from Ki (nM).
Data set [3] has as its target T1, CA IX. Description: MALDI-TOF/TOF-MS of CA IX-inhibitor complexes. Type of data set: binding. The settings on record: from MALDI spectra of CA IX-inhibitor mixtures.

Data on nine compounds can be found in publication PMC6151961 (Journal of Enzyme Inhibition and Medicinal Chemistry, 2018).

In data set [1], `NS(=O)(=O)c1cnccc1N1CCN(c2ccc(Cl)cc2)CC1` displayed a logkw of 4.530. At CA IX [2], the “logKi(CA IX)” value is recorded as 2.130.

Turning to `CCCCc1c(C)nn(-c2ccncc2S(N)(=O)=O)c1C`, in data set [1], the logkw was 2.800. For the same compound, on CA IX [2], the “logKi(CA IX)” value stood at 1.687 and the “pKi (exp.)” value stood at 1.687.

`Cc1cc(C)n(-c2ccncc2S(N)(=O)=O)n1`: the logkw in data set [1] is on record as 1.680. At CA IX [2], the “logKi(CA IX)” value turned out to be 1.394.

In turn, `Cc1nn(-c2ccncc2S(N)(=O)=O)c(C)c1C` registered a logkw in data set [1] of 2.090. The “logKi(CA IX)” value on CA IX [2] is 1.364.

For `NS(=O)(=O)c1cnccc1N1CCN(c2ccccc2)CC1`, the logkw in data set [1] was 3.010. For the same compound, the “number of inhibitor molecules binding to CA IX” value at CA IX [3] is “one”. At CA IX [2], the “logKi(CA IX)” value was determined as 2.093 and the “pKi (exp.)” value worked out at 2.093.

For the compound `NS(=O)(=O)c1cnccc1N1CCN(Cc2ccccc2)CC1`, the logkw in data set [1] stood at 1.270. In addition, the “number of inhibitor molecules binding to CA IX” value on CA IX [3] was “two”. The “logKi(CA IX)” value on CA IX [2] is given as 1.654.

`CCc1cc(CC)n(-c2ccncc2S(N)(=O)=O)n1` came in with a logkw in data set [1] of 2.340. Further, the “logKi(CA IX)” value on CA IX [2] turned out to be 1.501.

Turning to `CCOC(=O)CCc1c(C)nn(-c2ccncc2S(N)(=O)=O)c1C`, the logkw in data set [1] is listed as 2.440. The “logKi(CA IX)” value on CA IX [2] is 1.290.

As to `CSc1nc(N)n(-c2ccncc2S(N)(=O)=O)n1`, in data set [1], the logkw amounted to 1.100. Also, the “logKi(CA IX)” value at CA IX [2] is 1.816.
